This note sets out measurements from ChEMBL document CHEMBL4715797, “Structure-Activity Relationships of [des-Arg]Dynorphin A Analogues at the κ Opioid Receptor” (J Med Chem, 2016).

Chains of the proteins cited; added tags and fusions are not shown. Lines headed by an entry give the natural chain unless they say otherwise; changes in a name come on top.
UniProt P41145: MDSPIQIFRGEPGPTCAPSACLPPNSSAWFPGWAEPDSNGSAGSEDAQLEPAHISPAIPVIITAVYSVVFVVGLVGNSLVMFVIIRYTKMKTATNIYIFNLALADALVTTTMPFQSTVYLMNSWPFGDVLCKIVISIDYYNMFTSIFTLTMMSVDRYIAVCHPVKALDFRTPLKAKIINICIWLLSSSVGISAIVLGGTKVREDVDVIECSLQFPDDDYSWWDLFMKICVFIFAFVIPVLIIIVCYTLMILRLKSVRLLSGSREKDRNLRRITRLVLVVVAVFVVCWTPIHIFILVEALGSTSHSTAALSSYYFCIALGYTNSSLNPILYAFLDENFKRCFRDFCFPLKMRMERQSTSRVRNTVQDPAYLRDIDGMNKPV
UniProt P41143, whole entry: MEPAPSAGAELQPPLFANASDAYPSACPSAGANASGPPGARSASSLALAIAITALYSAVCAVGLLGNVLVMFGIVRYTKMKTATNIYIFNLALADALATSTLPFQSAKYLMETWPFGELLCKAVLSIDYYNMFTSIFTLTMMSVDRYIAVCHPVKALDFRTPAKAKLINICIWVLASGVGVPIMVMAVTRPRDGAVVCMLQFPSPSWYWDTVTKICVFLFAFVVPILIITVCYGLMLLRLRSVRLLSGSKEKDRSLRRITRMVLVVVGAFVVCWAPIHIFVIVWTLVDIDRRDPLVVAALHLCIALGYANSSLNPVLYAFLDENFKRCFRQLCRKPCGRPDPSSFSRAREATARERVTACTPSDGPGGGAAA
UniProt P35372, whole entry: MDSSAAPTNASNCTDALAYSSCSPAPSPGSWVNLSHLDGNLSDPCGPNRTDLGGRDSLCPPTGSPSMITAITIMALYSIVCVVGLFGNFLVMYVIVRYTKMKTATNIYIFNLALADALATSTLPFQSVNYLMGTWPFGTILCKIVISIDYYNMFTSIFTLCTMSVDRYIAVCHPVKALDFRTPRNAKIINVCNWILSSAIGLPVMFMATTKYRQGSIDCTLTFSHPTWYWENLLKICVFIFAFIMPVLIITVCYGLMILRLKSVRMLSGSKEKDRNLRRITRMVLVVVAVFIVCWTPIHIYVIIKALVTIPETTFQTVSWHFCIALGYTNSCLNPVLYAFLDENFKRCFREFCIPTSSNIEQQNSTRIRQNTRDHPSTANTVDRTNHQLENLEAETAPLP

The target in assay [1] is T1, Kappa-type opioid receptor (Homo sapiens, UniProt P41145). In words: Displacement of [3H]U69,593 from human KOR expressed in mouse HN9.10 cell membranes incubated for 2 hrs by liquid scintillation counting based radioligand competition assay. (Loss of bound radioactivity is the signal in a displacement assay; it reports binding, not function.)
For assay [2], the target named is Delta-type opioid receptor (Homo sapiens, UniProt P41143). In words: Displacement of [3H]deltorphin-II from human DOR expressed in CHO cell membranes incubated for 2 hrs by liquid scintillation counting based radioligand competition assay. Put shortly:
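Crude membranes from transfected cells, 50 µg protein, in 50 mM Tris-HCl pH 7.4 with bacitracin 50 µg/mL, captopril 10 µM, PMSF 100 µM and BSA 5 mg/mL. Ten concentrations (10−4–10−13 M) were run against 500 pM [3H]deltorphin II for 2 h at rt with shaking. Nonspecific binding was taken with 10 µM naloxone. Filtered on PEI-soaked GF/B, washed in cold saline, scintillation counted.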

Another assay has as its target Mu-type opioid receptor (Homo sapiens, UniProt P35372). In words: Displacement of [3H]diprenorphine from human MOR expressed in mouse NG108-15 cell membranes incubated for 2 hrs by liquid scintillation counting based radioligand competition assay.
The target in assay [3] is T1, Kappa-type opioid receptor. As to the kind of experiment: Antagonist activity at human KOR expressed in CHO cell membranes assessed as reduction in U50,488 induced response incubated for 1 hr by liquid scintillation counting based [35S]GTP-gamma-S assay. Set-up: species or system Cell membrane. (In general: GTPγS is a poorly hydrolysed GTP analogue; its binding reports G protein activation.)

For orientation: IC50 means the concentration needed to halve the response being measured. For orientation: Ki means the equilibrium dissociation constant of an inhibitor or competing ligand from its target. A high value points to a looser hold on the target. As for `CC(=O)N[C@@H](Cc1ccc(O)cc1)C(=O)NCC(=O)N1CCC[C@H]1C(=O)N[C@@H](Cc1ccccc1)C(=O)N[C@@H](CC(C)C)C(=O)N[C@@H](CCCNC(=N)N)C(=O)N[C@H](C)C(=O)N[C@@H](CCCNC(=N)N)C(=O)N1CCC[C@H]1C(=O)N[C@@H](CCCCN)C(N)=O`, in assay [1], the IC50 is 9120 nM and the affinity corresponds to a Ki of 5200 nM. Moreover, in assay [2], the IC50 was 24500 nM and the Ki is 9700 nM.

As to `CC[C@H](C)[C@H](NC(=O)[C@H](CCCNC(=N)N)NC(=O)[C@H](CC(C)C)NC(=O)[C@H](Cc1ccccc1)NC(=O)CNC(=O)CNC(=O)[C@H](Cc1ccc(O)cc1)NC(C)=O)C(=O)N[C@@H](CCCNC(=N)N)C(N)=O`, the IC50 is 93.3 nM in assay [1] and 9550 nM on Mu-type opioid receptor. The values for the Ki (in assay [1]; on Mu-type opioid receptor) were 51 nM and 4320 nM, respectively.

As for `CC(=O)N[C@@H](Cc1ccc(O)cc1)C(=O)NCC(=O)N1CCC[C@H]1C(=O)N[C@@H](Cc1ccccc1)C(=O)N[C@@H](CC(C)C)C(=O)N[C@@H](CCCNC(=N)N)C(=O)N[C@H](C)C(=O)N[C@@H](CCCNC(=N)N)C(=O)N1CCC[C@@H]1C(=O)N[C@@H](CCCCN)C(N)=O`, the IC50 in assay [1] is 6920 nM. For the same molecule, the Ki in assay [1] is 3600 nM; in assay [2], greater than 10000 nM.

In assay [2], `CC[C@H](C)[C@H](NC(=O)[C@H](CCCNC(=N)N)NC(=O)[C@H](CC(C)C)NC(=O)[C@H](Cc1ccccc1)NC(=O)[C@@H]1CCCN1C(=O)CNC(=O)[C@@H](N)Cc1ccc(O)cc1)C(=O)N[C@@H](CCCNC(=N)N)C(N)=O` gave a 50% inhibitory concentration (IC50) of 8510 nM and a Ki of 4600 nM.

On Mu-type opioid receptor, `CC[C@H](C)[C@H](NC(=O)[C@H](CCCNC(=N)N)NC(=O)[C@H](CC(C)C)NC(=O)[C@H](Cc1ccccc1)NC(=O)CNC(=O)CNC(=O)[C@@H](N)Cc1ccc(O)cc1)C(=O)N[C@@H](CCCNC(=N)N)C(=O)N1CCC[C@H]1C(=O)N[C@@H](CCCCN)C(N)=O` had an IC50 of 1.82 nM and a Ki of 0.94 nM.

In the case of `CC[C@H](C)[C@H](NC(=O)[C@H](CCCNC(=N)N)NC(=O)[C@H](CC(C)C)NC(=O)[C@H](Cc1ccccc1)NC(=O)CNC(=O)CNC(=O)[C@@H](N)Cc1ccc(O)cc1)C(=O)N[C@@H](CCCNC(=N)N)C(N)=O`, in assay [1], the IC50 was 0.55 nM and the Ki came out at 0.3 nM.

In assay [1], `CC(=O)N[C@@H](Cc1ccc(O)cc1)C(=O)NCC(=O)N1CCC[C@H]1C(=O)N[C@@H](Cc1ccccc1)C(=O)N[C@@H](CC(C)C)C(=O)N[C@@H](CCCN)C(=O)N[C@H](C)C(=O)N[C@@H](CCCNC(=N)N)C(=O)N1CCC[C@H]1C(=O)N[C@@H](CCCCN)C(N)=O` had a half-inhibitory concentration (IC50) of 7080 nM and a Ki of 4300 nM.

On to `CC[C@H](C)[C@H](NC(=O)[C@H](CCCNC(=N)N)NC(=O)[C@H](CC(C)C)NC(=O)[C@H](Cc1ccccc1)NC(=O)[C@@H]1CCCN1C(=O)CNC(=O)[C@@H](N)Cc1ccc(O)cc1)C(=O)N[C@@H](CCCNC(=N)N)C(=O)N1CCC[C@H]1C(=O)N[C@@H](CCCCN)C(N)=O`, for which the IC50 in assay [1] was 115 nM; in assay [2], 7760 nM; in assay [3], greater than 2500 nM. The Ki was 61 nM in assay [1] and 3900 nM in assay [2].

In assay [1], `CC[C@H](C)[C@H](NC(=O)[C@H](CCCNC(=N)N)NC(=O)[C@H](CC(C)C)NC(=O)[C@H](Cc1ccccc1)NC(=O)CNC(=O)CNC(=O)[C@H](Cc1ccc(O)cc1)NC(C)=O)C(=O)N[C@@H](CCCNC(=N)N)C(=O)N1CCC[C@H]1C(=O)N[C@@H](CCCCN)C(N)=O` showed an IC50 of 158 nM and a Ki of 85 nM. Moreover, on Mu-type opioid receptor, the IC50 was 1620 nM and the affinity, expressed as Ki, was 820 nM.

In assay [1], `CC(=O)N[C@@H](Cc1ccc(O)cc1)C(=O)NCC(=O)NCC(=O)N[C@@H](Cc1ccccc1)C(=O)N[C@@H](CC(C)C)C(=O)N[C@@H](CCCNC(=N)N)C(=O)N[C@H](C)C(=O)N[C@@H](CCCNC(=N)N)C(=O)N1CCC[C@@H]1C(=O)N[C@@H](CCCCN)C(N)=O` showed a 50% inhibitory concentration (IC50) of 186 nM and a Ki of 98 nM. In assay [2], this molecule gave a concentration for half-maximal inhibition (IC50) of 8710 nM and a Ki of 720 nM.

In the case of `CC[C@H](C)[C@H](NC(=O)[C@H](CCCNC(=N)N)NC(=O)[C@H](CC(C)C)NC(=O)[C@H](Cc1ccccc1)NC(=O)CNC(=O)CNC(=O)[C@@H](N)Cc1ccc(O)cc1)C(=O)N[C@@H](CCCNC(=N)N)C(=O)N1CCC[C@H]1C(=O)N[C@@H](CCCCN)C(=O)O`, affinity at Mu-type opioid receptor was put at a Ki of 6.3 nM.
